Laboratory results from publication PMC9834408, “The SPOC domain is a phosphoserine binding module that bridges transcription machinery with co- and post-transcriptional regulators” (Nature Communications, 2023).

Target: T1, RBM15 SPOC (Homo sapiens, UniProt Q96T37)
T1 construct: RBM15 SPOC (775–960 aa); His6 (N, cleaved yes); made in house; host or cells: E. coli Rosetta2 (DE3)
Assay: Fluorescence anisotropy binding of labeled peptides to RBM15 SPOC WT
Excerpt: To test whether SPOC domains are universal CTD binders and determine their binding specificity, we expressed and purified the SPOC domains of the human proteins PHF3, DIDO, SHARP, RBM15, and SPOCD1 and performed fluorescence anisotropy assays to measure their binding to Atto488-labeled CTD-diheptapeptides (Fig. 2, Supplementary Figs. 3–7). To obtain a comprehensive picture of SPOC-CTD interactions, we measured binding affinities for a total of eleven peptides that were either unphosphorylated (CTD) or phosphorylated in one (1×S2P, 1×S5P, 1×S7P, 1×Y1P, 1×T4P) or both repeats (2×S2P, 2×S5P, 2×S7P, 2×Y1P, 2×T4P) (Supplementary Table 2).
For mammalian expression, human DIDO3, SHARP, and RBM15 were amplified from HEK293T cDNA and cloned into CMV10 N3XFLAG (Sigma) by Gibson assembly (NEB). These constructs were used for cloning ΔSPOC truncations using Gibson assembly (NEB). CMV10 N3XFLAG-PHF3 and PHF3 ΔSPOC constructs were generated previously. NLS-SPOC constructs were cloned into CMV10 N3XFLAG (Sigma) between NotI and XbaI. NLS sequence ([…]) was introduced to ensure nuclear localization of the isolated SPOC domains. […] His6-PHF3 SPOC was generated previously. […]
Fluorescence anisotropy measurements were performed on a Perkin Elmer LS50 B fluorescence spectrometer operated by Perkin Elmar FL WinLab software (version 3.00). […] The grating factor was determined using unconjugated Atto-488 dye. […]

FAM-MTNEEPLPKKVRLSETDFK [WTAP, FAM-labeled peptide of the first 19 N-terminal amino acids of WTAP, unphosphorylated]
binding (in words): did not bind
